The source of these data is patent US9603953B2, “Dendrimer compositions, methods of synthesis, and uses thereof” (priority 2014, dated 2017).

One may read the mortality as the percentage killed.

Where two headings read alike, the source gives them in different places.

Data set [1] relates to Wistar rats. The following applies: single in situ intrahepatic dose 5.72 mCi/kg (209.969 MBq/kg), rat, observed 1 hour; 1,3 times human equivalent dose.
Data set [2] relates to Wistar rats. The data set can be described thus: Acute toxicity test after intravenous and intraperitoneal administration in the rat (Example 5). The class given is in vivo. The settings on record: single dose 63,4316 picomole/kg (33.17 mCi/kg = 1226 MBq/kg), male Wistar rats, observed 1 hour, 8 times human equivalent dose.

Turning to “Dendrimer G5 {1-nitro-1H-Imidazole-methyl-1,2,3-triazol-methyl-di-(2-pycolyl)amine}”, the mortality in data set [1] and in data set [2] was 0% in each case.
